Ab-14 light chain CDR variants: yeast mating affinities

All variants were tested on one target, the spike HR2 peptide PDVDLGDISGINAS (SARS-CoV-2).

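The parent was found by panning a naive human phage display library on the peptide. AAYL50 was designed without a model: most single CDR substitutions and a random sample of double and triple ones. In AlphaSeq, yeast of one mating type display the scFv and yeast of the other type display the target. Binding brings cells together so that they mate, and sequencing counts the barcode pairs among the diploids. Scores were corrected for input abundance and mapped to Kd with protein pairs of known affinity run in the same pool. The assay was run in three technical replicates.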

Ab-14 is the parent antibody, in scFv form: VH, then a (GGGGS)3 linker, then VL. The heavy chain is unchanged in all variants.
VH: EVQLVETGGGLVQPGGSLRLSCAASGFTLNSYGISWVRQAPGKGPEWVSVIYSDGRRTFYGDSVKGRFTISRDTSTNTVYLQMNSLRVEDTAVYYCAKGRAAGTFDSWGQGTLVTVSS
VL: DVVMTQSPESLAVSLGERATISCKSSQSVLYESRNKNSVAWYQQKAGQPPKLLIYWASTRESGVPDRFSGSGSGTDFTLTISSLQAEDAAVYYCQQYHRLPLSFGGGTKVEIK

Each variant is given by its three light chain CDRs, as the data file delimits them; those of the parent are KSSQSVLYESRNKNSVA, WASTRES, QQYHRLPLS.
Scale: log10 of Kd in nM, estimated from mating counts; low values are strong binders.
An entry "n.d." has no value in the source: the pair was not observed among the diploids in that replicate. This suggests poor binding but is not conclusive.
Parent in this assay: reference entry 0.65, copy in this library 1.68.
Empty control strains, which show no peptide, gave a signal in 18% of pairings with library AAYL50; the median was 4.19 and 95% of these signals were weaker than 2.99. No background was subtracted. The control count says in how many pairings with the empty strains this scFv gave a signal, with their mean in brackets.

| # | CDR-L1 | CDR-L2 | CDR-L3 | log10 Kd (nM) by replicate | empty controls |
|---|---|---|---|---|---|
| 1 | KSSQSVLYESENKNSVA | WNSTRLS | QQYHRLPLS | 2.63 1.61 2.08 | 0 of 9 |
| 2 | KSSQSVNYESRTKNSVA | WASTRES | QQYHFLPLS | 2.97 2.95 2.68 | 1 of 9 (5.07) |
| 3 | YSSQSVLYESRNKYSVA | WASTRES | QQYHRLPLE | n.d. 4.48 n.d. | 2 of 9 (4.09) |
| 4 | KSSQSVLEESRNKNSVA | MASTRES | QQYHRMPLS | 0.29 0.59 0.34 | 2 of 9 (5.15) |
| 5 | KSSQSVLYESRNHNSVA | WASTREQ | QQYHALPLS | 1.92 1.97 2.58 | 0 of 9 |
| 6 | KSSQSVLYESRNKNSVA | WASTRES | QQFARLPNS | n.d. n.d. n.d. | 0 of 9 |
| 7 | KSSQSVLYSSRNKNSVA | WASTRSS | QQYDRLPLS | 1.78 1.72 1.74 | 1 of 9 (3.90) |
| 8 | KSSQTVLYESRNKNSVA | WAITRES | NQYHRLPLS | n.d. n.d. n.d. | 0 of 9 |
| 9 | KSSQSVLYESENKNSVA | WASWRES | QQYHRLALS | 2.93 1.75 2.18 | 1 of 9 (3.92) |
| 10 | KSSNSVLYESRNKNSVA | WASTRES | VQYHRLPPS | n.d. 4.47 n.d. | 3 of 9 (3.50) |
| 11 | KSSQSLLYENRNKNMVA | WASTRES | QQYHRLPLS | 6.17 4.04 4.85 | 3 of 9 (4.94) |
| 12 | KSSQSVLYESRNKNGVA | WASTRES | AQYHSLPLS | n.d. n.d. n.d. | 0 of 9 |
| 13 | KSSQSTLYESRNKNSVA | SASTRES | QQYHRLPLL | -0.52 -0.12 -0.44 | 1 of 9 (5.39) |
| 14 | KSSQEVLYESDNKNSVA | WASTRES | QQYVRLPLS | 0.73 0.89 0.85 | 2 of 9 (4.65) |
| 15 | KSSQSVLYESRNYNSKA | WASTRES | WQYHRLPLS | n.d. 3.55 n.d. | 1 of 9 (3.51) |
| 16 | KSSQSVLYWSRNKNSVA | WASTRES | QQSHRLPNS | n.d. n.d. n.d. | 0 of 9 |
| 17 | KSSQSVLYESRNKNSVA | WASTCES | QQYHELPLM | n.d. n.d. n.d. | 0 of 9 |
| 18 | ESSQSVLYESRNKNSVA | WASQRPS | QQYHRLPLS | n.d. n.d. n.d. | 2 of 9 (4.58) |
| 19 | KSSQSGKYESRNKNSVA | WASTRES | QQIHRLPLS | n.d. n.d. n.d. | 0 of 9 |
| 20 | KSVQSVLYESRNKNSVA | MASTRES | QQTHRLPLS | 1.39 1.62 1.86 | 2 of 9 (4.75) |
| 21 | KSSQSVPYESRHKNSVA | SASTRES | QQYHRLPLS | 0.39 0.54 0.57 | 3 of 9 (4.02) |
| 22 | KSSQSVLYESRNKNSVA | WASTRES | QQYPKLPLA | 4.40 n.d. 4.56 | 2 of 9 (4.22) |
| 23 | KSSQSSLYESRKKNSVA | WASTRES | QRYHRLPLS | n.d. n.d. 3.19 | 2 of 9 (3.38) |
| 24 | KISCSVLYESRNKNFVA | WASTRES | QQYHRLPLS | 1.10 1.19 1.43 | 1 of 9 (3.95) |
| 25 | KSSQSVSYESRNKNSVA | WASTRES | QQYHFLPLS | 1.66 1.53 1.37 | 1 of 9 (4.24) |
| 26 | KSSQSVLYESRMKNSVA | WASTREG | QQYHRFPLS | 1.96 1.99 1.92 | 0 of 9 |
| 27 | KWSQSVLYESRNKNSVA | WASTRDS | QQGHRLPLS | 1.49 1.70 1.84 | 3 of 9 (4.70) |
| 28 | KSSQSVLYETRNKNSVA | WASTQES | QQYKRLPLS | n.d. 4.03 n.d. | 1 of 9 (4.67) |
| 29 | KSSQSVLYKSDNKNSVA | WASTRQS | QQYHRLPLS | 0.92 1.07 1.02 | 5 of 9 (4.32) |
| 30 | KSSSSVLYESRNKNSPA | WAITRES | QQYHRLPLS | n.d. n.d. n.d. | 1 of 9 (4.49) |
| 31 | KSSQSVNYESRNKNSVA | WASTMES | QQYHRLPKS | 3.48 1.99 3.34 | 1 of 9 (2.53) |
| 32 | KSSQSVLYEWRNKESVA | WASTRES | QQYHRLPLS | 2.22 2.49 2.44 | 2 of 9 (5.42) |
| 33 | KSSQQVLYESRNKASVA | WASTMES | QQYHRLPLS | n.d. n.d. n.d. | 1 of 9 (2.52) |
| 34 | KSSQSVLYESRNKNSVF | WASTRES | QQNHRLPLS | 2.20 n.d. n.d. | 0 of 9 |
| 35 | KHKQSVLYESRNKSSVA | WASTRES | QQYHRLPLS | 2.74 2.37 2.68 | 8 of 9 (4.33) |
| 36 | KSSQEVLYQSRNKNSVA | WASTRES | QQYHRLPLY | n.d. n.d. n.d. | 1 of 9 (3.25) |
| 37 | KSSQSVLRESDNKNSVA | WASTREV | QQYHRLPLS | -0.02 0.31 0.09 | 0 of 9 |
| 38 | PSSQSVLYMSRNKNSVA | WASTRES | QQYHRLPYS | n.d. n.d. n.d. | 1 of 9 (5.56) |

The closing 6 entries, repeated:

{"CDR-L1": "KSSQQVLYESRNKASVA", "CDR-L2": "WASTMES", "CDR-L3": "QQYHRLPLS", "log10 Kd (nM) by replicate": "n.d. n.d. n.d.", "empty controls": "1 of 9 (2.52)"}
{"CDR-L1": "KSSQSVLYESRNKNSVF", "CDR-L2": "WASTRES", "CDR-L3": "QQNHRLPLS", "log10 Kd (nM) by replicate": "2.20 n.d. n.d.", "empty controls": "0 of 9"}
{"CDR-L1": "KHKQSVLYESRNKSSVA", "CDR-L2": "WASTRES", "CDR-L3": "QQYHRLPLS", "log10 Kd (nM) by replicate": "2.74 2.37 2.68", "empty controls": "8 of 9 (4.33)"}
{"CDR-L1": "KSSQEVLYQSRNKNSVA", "CDR-L2": "WASTRES", "CDR-L3": "QQYHRLPLY", "log10 Kd (nM) by replicate": "n.d. n.d. n.d.", "empty controls": "1 of 9 (3.25)"}
{"CDR-L1": "KSSQSVLRESDNKNSVA", "CDR-L2": "WASTREV", "CDR-L3": "QQYHRLPLS", "log10 Kd (nM) by replicate": "-0.02 0.31 0.09", "empty controls": "0 of 9"}
{"CDR-L1": "PSSQSVLYMSRNKNSVA", "CDR-L2": "WASTRES", "CDR-L3": "QQYHRLPYS", "log10 Kd (nM) by replicate": "n.d. n.d. n.d.", "empty controls": "1 of 9 (5.56)"}

Values reported by Engelhart et al. 2022, doi:10.1038/s41597-022-01779-4 (FLAb copy).